# AlphaSeq binding of Ab-91 heavy chain variants to a spike HR2 peptide

Target peptide (SARS-CoV-2 spike, HR2 region): PDVDLGDISGINAS

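Phage display of a naive human antibody library on the peptide gave the parent. The library (AAYL51) carries one to three amino acid substitutions per variant, with no insertions or deletions. In AlphaSeq, yeast of one mating type display the scFv and yeast of the other type display the target. Pairs that bind mate more often; barcode pairs of the diploids are counted by sequencing. Scores were corrected for input abundance and mapped to Kd with protein pairs of known affinity run in the same pool. The assay was run in three technical replicates.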

Ab-91 is the parent antibody, in scFv form: VL, then a (GGGGS)3 linker, then VH. The light chain is unchanged in all variants.
VL: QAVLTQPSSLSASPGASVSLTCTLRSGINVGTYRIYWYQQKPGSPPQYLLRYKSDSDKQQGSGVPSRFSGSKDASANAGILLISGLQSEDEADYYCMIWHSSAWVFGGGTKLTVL
VH: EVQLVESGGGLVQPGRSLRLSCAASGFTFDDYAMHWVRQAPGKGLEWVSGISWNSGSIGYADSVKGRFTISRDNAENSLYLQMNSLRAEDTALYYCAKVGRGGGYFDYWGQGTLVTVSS

Changes read parent residue, position, new residue, counted from the first residue of the VH shown.
Numbers give log10(Kd / nM), so 0 is 1 nM and 3 is 1 µM. Smaller is tighter.
Replicates are averaged; those with no signal do not enter the mean.
"no signal" means that the variant was in the library but no mating with the target was seen in any replicate; the authors take this as a sign of poor binding, and no number exists.
Three control strains display no target. For library AAYL51, 21% of the pairings with them gave a signal, with a median of 4.54 and one signal in twenty below 3.26, so weak values seen in few replicates may be background.

changes,"log10 Kd (nM), mean",seen in
V99R/Y105A/Y108S,no signal,0 of 3
T28D/N54W/S55Q,no signal,0 of 3
F29M/A33V/D107M,no signal,0 of 3
T28E/I58E/R101H,2.22,3 of 3
D30F/A33P/I51W,4.74,2 of 3
G59A/Y60G/D62R,5.21,3 of 3
S57L/G102D/G104L,no signal,0 of 3
S57I/R101A/G103C,3.58,1 of 3
F27C/V99N/Y108G,no signal,0 of 3
G50E/I58G,no signal,0 of 3
G26I/D62A/V99E,no signal,0 of 3
G50N/S55P/Y108M,no signal,0 of 3
S55A/G100L/Y108N,no signal,0 of 3
W53H/N54K/K65G,5.41,3 of 3
D30Y/I51T,3.95,1 of 3
H35N/W53F/V64S,4.86,2 of 3
H35E/K65F/G102R,4.60,1 of 3
V64H/F106G/D107R,5.41,1 of 3
G26S/G56M/Y105D,4.91,1 of 3
H35Q/S57H/R101D,4.67,2 of 3
T28L/A61D/D107W,3.09,3 of 3
T28V/S57P/S63H,5.17,3 of 3
T28H/H35Q/S57F,5.56,2 of 3
S55H/G56W/G59A,4.52,3 of 3
T28K/M34A/G102P,no signal,0 of 3
D30R/G104I/F106V,3.14,1 of 3
G59K/S63N,5.00,1 of 3
T28N/V64Q,3.16,3 of 3
S52F/W53F/A61K,no signal,0 of 3
Y32M/S63K/Y108W,3.36,3 of 3
F27R/S52A/W53T,no signal,0 of 3
G56D/Y60I/G104L,4.69,1 of 3
G50R/S52R/G56C,5.69,3 of 3
D30K/G104P/Y105E,no signal,0 of 3
Y32D/H35C/G50F,no signal,0 of 3
G50L/S52R/G104L,5.50,2 of 3
I51R/G104N/F106Y,no signal,0 of 3
V64M/G100T/D107Y,no signal,0 of 3
F29A/M34E/G104W,4.12,1 of 3
Y32V/S55K/V99G,no signal,0 of 3
S63R/G102H/Y105W,2.70,3 of 3
D31L/M34H/Y108G,no signal,0 of 3
N54S/K65M/F106D,no signal,0 of 3
D31I/H35I/V99P,no signal,0 of 3
G26Q/D107I,no signal,0 of 3
D31H/S55E/G100K,4.31,1 of 3

3 of these entries, quoted again:

{"changes": "T28K/M34A/G102P", "log10 Kd (nM), mean": "no signal", "seen in": "0 of 3"}
{"changes": "D31L/M34H/Y108G", "log10 Kd (nM), mean": "no signal", "seen in": "0 of 3"}
{"changes": "G59A/Y60G/D62R", "log10 Kd (nM), mean": "5.21", "seen in": "3 of 3"}

For reference, the parent read 1.86 as the reference entry and 0.88 as a member of this library.

Reference: Engelhart et al. 2022, doi:10.1038/s41597-022-01779-4. File: FLAb, binding data.